Laboratory results: patent US10960087B2, “Compositions and methods for treatment of diabetic retinopathy” (NOVARTIS AG, priority 2007, dated 2021)

Amino acid sequences for entries named in this document (tags omitted). Residues count along the entry.
UniProt P05107, 23-769 limits assumed: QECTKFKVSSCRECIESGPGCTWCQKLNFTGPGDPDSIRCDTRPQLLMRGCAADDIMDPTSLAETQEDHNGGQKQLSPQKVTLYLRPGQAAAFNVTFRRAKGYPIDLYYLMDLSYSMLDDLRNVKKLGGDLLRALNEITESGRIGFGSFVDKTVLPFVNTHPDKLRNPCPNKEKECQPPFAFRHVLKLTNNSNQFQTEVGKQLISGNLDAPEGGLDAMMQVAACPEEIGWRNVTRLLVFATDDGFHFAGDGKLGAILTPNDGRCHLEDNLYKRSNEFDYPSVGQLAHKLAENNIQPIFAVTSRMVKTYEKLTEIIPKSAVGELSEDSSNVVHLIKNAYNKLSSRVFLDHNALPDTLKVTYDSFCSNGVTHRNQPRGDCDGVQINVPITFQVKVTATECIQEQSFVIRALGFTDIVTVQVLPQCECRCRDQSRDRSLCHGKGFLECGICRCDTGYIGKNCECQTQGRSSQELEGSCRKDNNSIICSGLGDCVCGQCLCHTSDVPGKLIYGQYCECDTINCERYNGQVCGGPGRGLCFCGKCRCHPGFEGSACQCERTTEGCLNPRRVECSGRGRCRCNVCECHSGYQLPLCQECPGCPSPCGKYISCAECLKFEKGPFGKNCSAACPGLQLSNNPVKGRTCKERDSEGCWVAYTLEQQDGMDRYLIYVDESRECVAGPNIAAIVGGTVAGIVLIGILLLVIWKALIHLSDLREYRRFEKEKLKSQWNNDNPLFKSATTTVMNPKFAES
UniProt P20701, 26-1170 limits assumed: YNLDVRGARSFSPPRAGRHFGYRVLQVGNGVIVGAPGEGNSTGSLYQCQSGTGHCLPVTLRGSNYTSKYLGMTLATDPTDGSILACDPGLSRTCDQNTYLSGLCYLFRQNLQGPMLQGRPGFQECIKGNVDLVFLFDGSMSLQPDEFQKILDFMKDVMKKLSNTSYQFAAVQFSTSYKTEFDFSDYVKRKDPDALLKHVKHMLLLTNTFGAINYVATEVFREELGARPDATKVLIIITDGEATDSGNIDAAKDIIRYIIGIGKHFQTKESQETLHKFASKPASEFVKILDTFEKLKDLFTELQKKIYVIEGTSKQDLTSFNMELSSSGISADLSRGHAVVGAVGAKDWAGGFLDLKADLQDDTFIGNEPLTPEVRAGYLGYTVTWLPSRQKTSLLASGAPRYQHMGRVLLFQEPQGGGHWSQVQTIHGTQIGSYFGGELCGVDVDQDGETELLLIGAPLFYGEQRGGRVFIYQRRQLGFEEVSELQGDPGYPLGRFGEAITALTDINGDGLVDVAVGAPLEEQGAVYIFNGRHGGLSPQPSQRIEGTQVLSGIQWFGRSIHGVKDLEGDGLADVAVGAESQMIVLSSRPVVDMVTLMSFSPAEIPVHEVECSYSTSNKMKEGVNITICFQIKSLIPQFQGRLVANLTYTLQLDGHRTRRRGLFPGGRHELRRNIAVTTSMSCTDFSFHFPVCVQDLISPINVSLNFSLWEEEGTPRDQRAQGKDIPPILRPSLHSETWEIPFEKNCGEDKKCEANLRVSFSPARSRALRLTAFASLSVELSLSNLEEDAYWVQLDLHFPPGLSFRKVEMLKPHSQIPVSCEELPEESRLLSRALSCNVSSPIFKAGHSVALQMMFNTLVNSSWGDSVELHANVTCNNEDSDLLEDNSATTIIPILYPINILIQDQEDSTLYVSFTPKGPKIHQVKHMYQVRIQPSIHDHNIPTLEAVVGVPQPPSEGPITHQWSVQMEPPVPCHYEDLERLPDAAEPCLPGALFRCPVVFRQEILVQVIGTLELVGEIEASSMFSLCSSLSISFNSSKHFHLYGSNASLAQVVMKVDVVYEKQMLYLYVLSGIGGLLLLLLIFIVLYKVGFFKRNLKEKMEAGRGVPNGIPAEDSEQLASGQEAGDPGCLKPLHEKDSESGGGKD

What was measured:
[1] = molecular target: binding of ICAM-1-Ig to LFA-1 (Homo sapiens, UniProt P05107+P20701); test: LFA-1/ICAM-1 ELISA, antagonist competition
[2] = molecular target: binding of compound 2B to LFA-1 (Homo sapiens, UniProt P05107+P20701); test: LFA-1/small molecule ELISA, antagonist competition; details: read-out: IC50, inhibition of binding of compound 2B to LFA-1, 25 nM compound 2B

With `NCCCCCC(=O)NCCCC[C@H](NC(=O)c1ccc(C(=O)NCc2cccc(O)c2)cc1Cl)C(=O)O` the “IC50 relative to that of compound 3, ICAM-1-Ig binding to LFA-1” value [1] was “approximately 10 fold” and the IC50 [2] was 0.056 µM.
